# From patent US20130040405A1, “METHODS FOR SENSITIVE AND RAPID DETECTION OF MOLECULES” (published 2013)
# Tested on: anti-TNT monoclonal antibody (A1.1.1)
# Assay: ELISA measurement of anti-TNT antibody displacement from TNB-ovalbumin by TNT and TNT analogs
# Conditions: displacement of antibody A1.1.1 from immobilized TNB-ovalbumin
smiles,measurement,value
Cc1c(N)cc([N+](=O)[O-])cc1[N+](=O)[O-],Concentration upon 50% of antibody displacement,0.94 µg/mL
